{
  "source": "patent US10717966B2",
  "about": "“Stem cell-derived hepatocytes in co-culture and uses thereof” (Colorado State University Research Foundation, priority 2014, dated 2020)",
  "system": "iMPCCs (iHep micropatterned co-cultures)",
  "settings": "human, 6 days",
  "data": [
    {"smiles": "CN1CCN(C2=Nc3cc(Cl)ccc3Nc3ccccc32)CC1", "note": "[Clozapine]", "values": [
      {"measurement": "TC50 in iMPCCs, ATP", "value": 57.9, "unit": "µM"}
    ]}
  ]
}
